Source: PubChem
Compounds with a hit are over-represented: about 13% of the library has one in this group of screens.
miR-21 reporter = raises the signal of a miR-21 reporter; Potency, µM (doses to about 38.3 µM); HeLa miR-21 FLuc reporter, luciferase, 48 h; AID 2288; 340,000 tested, under 10 active; active = well fitted rising curve with a large enough effect; inconclusive = small, poorly fitted or top-dose-only effect; inactive = no such curve, though single readings can be large or run the other way;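 further: miR-21 action dims this reporter so a rising signal means less miR-21 action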
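Using DMEM plus 10% FBS, HeLa miR-21-FLuc cells are incubated with test compounds (final up to about 40uM) for 48 hours; firefly luciferase signal is then imaged following reagent-mediated lysis.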
KDM4E inh = JMJD2E (human) inhibition | Potency, µM (highest dose often 57.1 µM), hits mostly inhibitors | JMJD2E catalytic domain, FDH-coupled NADH fluorescence (FDH is formaldehyde dehydrogenase) | B2RXH2 | 230,000 tested, 1.6% active; active = well fitted inhibition curve with a large enough effect, not every such curve was filed as active; inconclusive = small, poorly fitted or top-dose-only effect, or another doubt; inactive = no such curve, though single readings can be large or run the other way; note: nearly all actives have a fitted effect of over 50% in size
Lamin A splicing = changes lamin A minigene splicing in HeLa cells. HeLa LMNA splicing GFP/RFP minigene ratio, 48 h. Potency, µM (titrated, usually from 46.1 µM), actives largely listed as inhibitors. 200,000 tested, 0.01% active; active = well fitted inhibition curve with a large enough effect in the signal ratio, with a control signal flat, not every such curve was filed as active; inconclusive = small, poorly fitted or top-dose-only effect, or effect the other way, or a change in a side signal; the % refers to the signal ratio
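S3 HeLa stable clones carrying a lamin A-EGFP splicing minigene plus DsRed2 were seeded at 600 cells/well in Opti-MEM with 2% FBS, pin-dosed and incubated 48 h at 37°C. Acumen cytometry (488 nm) gave the GFP/RFP total-intensity ratio.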
Sfp PPTase inh = Sfp phosphopantetheinyl transferase inhibition; Q9F4F7; Biochemical Sfp PPTase activity, qHTS; Potency, µM, most hits filed as inhibitors; 310,000 tested, 3.5% active;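 note: the enzyme is Sfp with the accession as filed and its product quenches rhodamine fluorescence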
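With Hepes-Na pH 7.6 buffer containing 10 mM MgCl2, Sfp (15 nM) modified BHQ-2-YbbR (12.5 uM) using rhodamine-CoA (5 uM). Two reads 30 minutes apart at 525/598 nm yielded each well's rate.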
ALDH1A1 block = ALDH1A1 (human) enzyme inhibition; P00352; Purified ALDH1A1, NADH fluorescence, propionaldehyde substrate; Potency, µM (titrated, usually from 75.3 µM), usual class: inhibitors; 220,000 tested, 7.3% active; AID 1030; active = well fitted inhibition curve with a large enough effect, not every such curve was filed as active; inconclusive = small, poorly fitted or top-dose-only effect, or another doubt; inactive = no such curve, though single readings can be large or run the other way
G9a block = inhibitors of human histone lysine methyltransferase G9a; Q96KQ7; G9a H3K9 monomethylation, AlphaScreen, 2 h; Potency, µM (top dose mostly 102 µM), usual class: inhibitors; 350,000 tested, 8.8% active; AID 504332; note: nearly all actives have a fitted effect of over 75% in size
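G9a (20 nM) preincubated 15 min RT with compounds, then 500 nM biotinylated H3K9 peptide and 20 uM SAM added; 2 h RT reaction. Monomethyl-H3K9 product detected by AlphaScreen with anti-H3K9me1 antibody, streptavidin donor and anti-rabbit IgG acceptor beads.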
A number is an active result; [ ] = dose if it differs, or a comment. Unless noted, calls come from the whole dose curve; as a rule, active = well fitted curve in the direction sought with a large enough effect; inconclusive = small, poorly fitted or top-dose-only effect, or another doubt; inactive = no such curve, though single readings can be large; an effect the other way counts as inactive or inconclusive.

What do the screens show for `CCCn1cnc2c(c1=O)c1nc3ccccc3nc1n2Cc1ccccc1OC`?
miR-21 reporter: inactive; KDM4E inh: inactive; Lamin A splicing: inactive; Sfp PPTase inh: inactive; ALDH1A1 block: 3.98µM; G9a block: inactive

Results for C#CCn1c(=O)c2c(nc(/C=C/c3cccc(OC)c3)n2C)n(CCCO)c1=O ?
Sfp PPTase inh: inactive

How did Cc1ccc(N(CC(=O)NCCc2ccccc2)C(=O)CCC(=O)Nc2cc(C)ccn2)cc1 do in these assays?
miR-21 reporter: inactive; Sfp PPTase inh: inactive; G9a block: inactive

Results for O=C(CCNC(=O)c1ccccc1Cl)Nc1nnc(C2CC2)s1 ?
miR-21 reporter: inactive; KDM4E inh: inactive; Lamin A splicing: inactive; Sfp PPTase inh: inactive; ALDH1A1 block: inactive; G9a block: inactive

Results for COc1ccc(-c2noc(N3CCC(C(=O)Nc4ccc(C)c(F)c4)CC3)n2)cc1OC ?
miR-21 reporter: inactive; G9a block: inactive

Results for CN(Cc1ccccc1)S(=O)(=O)c1ccc(NC(=O)c2cc(=O)c3ccccc3o2)cc1 ?
miR-21 reporter: inconclusive; G9a block: inactive

How did COc1ccc(NC(=O)NC(C)(C(F)(F)F)C(F)(F)F)cc1 do in these assays?
miR-21 reporter: inactive; KDM4E inh: inactive; Lamin A splicing: inactive; Sfp PPTase inh: inactive; ALDH1A1 block: inactive; G9a block: inactive

How did CC(NC(=O)Nc1ccc(O)cc1)(C(F)(F)F)C(F)(F)F do in these assays?
miR-21 reporter: inactive; KDM4E inh: inconclusive; Lamin A splicing: inactive; Sfp PPTase inh: inactive; ALDH1A1 block: inactive; G9a block: 11.2µM

Results for Cc1cc(C)cc(NC(=O)Nc2ccc3nc(N4CCN(C)CC4)cc(C)c3c2)c1 ?
miR-21 reporter: inactive; Lamin A splicing: inconclusive; G9a block: inactive

Results for CC(=O)NC1Sc2ccccc2N=C1c1ccccc1 (stereo unspecified) ?
miR-21 reporter: inactive; KDM4E inh: inconclusive; Lamin A splicing: inactive; Sfp PPTase inh: 15.8µM; ALDH1A1 block: 25.1µM; G9a block: inconclusive

Results for O=C1CCCCCN1Cc1nnc(SCc2nc3ccccc3s2)n1-c1ccccn1 ?
miR-21 reporter: inactive; KDM4E inh: inactive; Lamin A splicing: inconclusive; Sfp PPTase inh: inactive; ALDH1A1 block: inconclusive; G9a block: 50.1µM

Results for O=C(NC1CCCC1)c1cccc(S(=O)(=O)N2CCCC2)c1 ?
G9a block: inactive[12.7 µM]

What do the screens show for `CCCOc1ccc(C(=O)Nc2ccc3c(c2)OCCO3)cc1`?
miR-21 reporter: inactive; Sfp PPTase inh: inactive; G9a block: inactive

What do the screens show for `Cc1cc(C)c(S(=O)(=O)N(CC(=O)O)CC(=O)O)c(C)c1`?
miR-21 reporter: inactive; KDM4E inh: inactive; Lamin A splicing: inactive; Sfp PPTase inh: inactive; ALDH1A1 block: inactive; G9a block: 22.4µM

How did O=[N+]([O-])c1ccccc1/C=C/C=N/n1c(-c2cc(-c3ccccc3)n[nH]2)n[nH]c1=S do in these assays?
miR-21 reporter: inactive; KDM4E inh: inactive; Sfp PPTase inh: 17.8µM; ALDH1A1 block: inactive

How did Cc1ccc(-c2n[nH]c(=S)n2/N=C/C=C/c2ccccc2[N+](=O)[O-])cc1 do in these assays?
miR-21 reporter: inactive; KDM4E inh: inactive; Lamin A splicing: inactive; Sfp PPTase inh: inconclusive; ALDH1A1 block: inactive; G9a block: 0.282µM

How did S=c1[nH]nc(-c2cc(-c3ccccc3)n[nH]2)n1/N=C/C(Br)=C/c1ccccc1 do in these assays?
miR-21 reporter: inconclusive; KDM4E inh: inactive; Sfp PPTase inh: inconclusive; ALDH1A1 block: inactive; G9a block: 22.4µM

What do the screens show for `COc1ccccc1/C=C/C=N/n1c(-c2cc(-c3ccccc3)n[nH]2)n[nH]c1=S`?
miR-21 reporter: inactive; KDM4E inh: inactive; Sfp PPTase inh: inactive; ALDH1A1 block: inconclusive; G9a block: inconclusive

How did BrC(=C\c1ccccc1)/C=N/n1cnnc1 do in these assays?
miR-21 reporter: inconclusive; KDM4E inh: inactive; Lamin A splicing: inconclusive; Sfp PPTase inh: inactive; ALDH1A1 block: inactive; G9a block: inactive

Results for S=c1[nH]nc(-c2cc(-c3ccccc3)n[nH]2)n1/N=C/C=C/c1ccccc1 ?
miR-21 reporter: inactive; KDM4E inh: inactive; Sfp PPTase inh: inactive; ALDH1A1 block: inconclusive; G9a block: 8.91µM
